Source: ChEMBL document CHEMBL1136784, “Synthesis and biological evaluation of 14-alkoxymorphinans. 18. N-substituted 14-phenylpropyloxymorphinan-6-ones with unanticipated agonist properties: extending the scope of common structure-activity relationships” (J Med Chem, 2003)

Target: Opioid receptors; mu and delta (Mus musculus) (UniProt P42866+P32300)
Experiment: In vivo antinociceptive activity was determined upon subcutaneous administration in the mouse paraphenylquinone writhing test
Format: functional, organism-based

Question: How did the ED50 turn out when O=C1CC[C@@]2(OCCCc3ccccc3)[C@H]3Cc4ccc(O)c5c4[C@@]2(CCN3CCc2ccccc2)[C@H]1O5 was run?
Answer: Its ED50 is 9 µg/kg.
